Converted amounts (≈) assume the structure as drawn.

Protein sequences, listed by entry. Tags and fused reporters are not part of them. Lines headed by an entry give the natural chain unless they say otherwise; changes in a name come on top.
UniProt P11388: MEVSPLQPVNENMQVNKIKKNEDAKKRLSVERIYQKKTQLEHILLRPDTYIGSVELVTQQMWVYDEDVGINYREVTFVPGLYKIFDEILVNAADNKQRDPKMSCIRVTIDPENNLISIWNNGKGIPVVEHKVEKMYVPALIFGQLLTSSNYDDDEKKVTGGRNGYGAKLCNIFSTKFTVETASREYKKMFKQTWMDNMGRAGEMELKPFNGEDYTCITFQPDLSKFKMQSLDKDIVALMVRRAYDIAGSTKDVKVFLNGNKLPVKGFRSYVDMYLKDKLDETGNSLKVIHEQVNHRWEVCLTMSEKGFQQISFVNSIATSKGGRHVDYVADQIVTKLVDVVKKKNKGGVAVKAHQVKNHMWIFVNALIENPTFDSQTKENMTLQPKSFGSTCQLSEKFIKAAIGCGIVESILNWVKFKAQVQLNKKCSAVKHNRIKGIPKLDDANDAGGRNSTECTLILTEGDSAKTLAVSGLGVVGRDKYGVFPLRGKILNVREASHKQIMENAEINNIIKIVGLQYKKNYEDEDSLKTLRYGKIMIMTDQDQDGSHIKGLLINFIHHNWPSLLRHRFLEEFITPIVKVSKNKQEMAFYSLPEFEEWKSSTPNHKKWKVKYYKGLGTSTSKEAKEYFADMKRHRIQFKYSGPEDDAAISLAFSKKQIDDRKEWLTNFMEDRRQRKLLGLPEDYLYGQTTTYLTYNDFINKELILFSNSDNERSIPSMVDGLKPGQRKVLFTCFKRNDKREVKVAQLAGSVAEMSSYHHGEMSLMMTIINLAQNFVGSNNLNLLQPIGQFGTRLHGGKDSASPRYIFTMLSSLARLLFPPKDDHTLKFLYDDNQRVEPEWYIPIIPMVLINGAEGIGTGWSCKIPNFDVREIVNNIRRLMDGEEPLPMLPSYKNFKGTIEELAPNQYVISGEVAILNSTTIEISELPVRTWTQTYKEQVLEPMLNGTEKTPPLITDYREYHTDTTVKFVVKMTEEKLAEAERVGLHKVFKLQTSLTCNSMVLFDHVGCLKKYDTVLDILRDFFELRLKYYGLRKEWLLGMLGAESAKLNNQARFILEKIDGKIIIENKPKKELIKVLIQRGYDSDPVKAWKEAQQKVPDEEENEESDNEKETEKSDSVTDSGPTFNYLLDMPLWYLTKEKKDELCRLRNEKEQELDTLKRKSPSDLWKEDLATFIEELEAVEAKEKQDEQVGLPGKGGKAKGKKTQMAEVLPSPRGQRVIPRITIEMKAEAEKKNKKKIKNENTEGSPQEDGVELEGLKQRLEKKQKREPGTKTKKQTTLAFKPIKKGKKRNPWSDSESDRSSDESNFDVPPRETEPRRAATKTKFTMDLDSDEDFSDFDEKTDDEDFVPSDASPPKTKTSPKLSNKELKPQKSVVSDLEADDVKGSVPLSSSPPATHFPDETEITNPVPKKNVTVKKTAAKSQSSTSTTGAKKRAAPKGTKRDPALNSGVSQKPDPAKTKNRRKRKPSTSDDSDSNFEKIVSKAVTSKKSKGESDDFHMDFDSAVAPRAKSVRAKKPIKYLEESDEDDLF

Assay [1] has as its system HeLa-S^3 suspended cervical carcinoma. The experiment in a line: Cytotoxicity, HeLa-S3. The conditions noted are these: hela-s3 cells.
The subject of assay [2] is KB epidermoid nasopharynx. The experiment in a line: Cytotoxicity, KB epidermoid nasopharynx. The conditions noted are these: for ED50 Cytotoxicity, Human KB: kb cells.
For assay [3], the system named is murine L1210 lymphoid leukemia. The experiment in a line: Cytotoxicity, L1210 lymphoid leukemia. The conditions noted are these: trypan blue exclusion.
Assay [4] relates to human Tmolt3 acute lymphoblastic T cell leukemia. The experiment in a line: Cytotoxicity, Tmolt3. The conditions noted are these: trypan blue exclusion.
Assay [5] addresses DNA topoisomerase II (HeLa) (Homo sapiens, UniProt P11388). The experiment in a line: DNA topoisomerase II inhibition (unknotting of knotted DNA). The settings on record: one hour reaction, agarose gel.
Assay [6] relates to lung bronchogenic MB-9812. The experiment in a line: Cytotoxicity, lung bronchogenic MB-9812. The conditions noted are these: for ED50 Cytotoxicity, Human Lung Bronchogenic: concentration which inhibits 50% of cell growth.
Assay [7] relates to P388 lymphocytic leukemia. The experiment in a line: Cytotoxicity, P388 lymphocytic leukemia. The settings on record: for ED50 Cytotoxicity, P388 Lymphocytic Leukemia: p388 cells.
Assay [8] can be described thus: Hypolipidemic screen in normal mice. The settings on record: CF1 male mice, IP; for Serum Cholesterol Day 9 / Serum Cholesterol Day 16 / Serum Triglycerides Day 16: 8 Mg/kg/day, N = 6.
Assay [9] concerns colorectal adenocarcinoma SW480. The experiment in a line: Cytotoxicity, colorectal adenocarcinoma SW480. The conditions noted are these: sw480 cells.
In another assay the test system is osteosarcoma TE418. Briefly: Cytotoxicity, osteosarcoma TE418. The settings on record: te418 cells.
A further assay concerns glioma EH 118 MG. The experiment in a line: Cytotoxicity, glioma EH 118 MG. The conditions noted are these: eh 118 mg cells.
For assay [10], the system named is Ehrlich ascites carcinoma. Briefly: in vivo Ehrlich ascites carcinoma screen. The settings on record: 20 mg/kg/day I.P., CF1 male mice.
Assay [11] in a line: Anti-inflammatory activity, carrageenan paw. The settings on record: CF1 Mice, 20 mg/kg × 2 (table head; b1373: 8 mg/kg i.p. 3 hours and 30 minutes before carrageenan). In general terms: Carrageenan injected into the paw causes an acute inflammation.
The subject of a further assay is Lewis lung carcinoma. The experiment in a line: In vivo Lewis lung carcinoma activity. The conditions noted are these: 8 mg/kg/day I.P.

As to `Cn1cc[n+]([BH2-]C(=O)O)c1`, the “ED50 Cytotoxicity, Human HeLa-S^3” value in [1] worked out at 1.97 µg/mL (≈ 14.1 µM). In addition, in [2], the “ED50 Cytotoxicity, Human KB” value turned out to be 4.43 µg/mL (≈ 31.7 µM). Besides, the “ED50 Cytotoxicity, L1210 Lymphoid Leukemia” value in assay [3] amounted to 2.46 µg/mL (≈ 17.6 µM). Further, the “ED50 Cytotoxicity, Human lymphocyte Tmolt3” value in assay [4] stood at 2.72 µg/mL (≈ 19.4 µM). For the same compound, the “Inhibitory Concentration, Topoisomerase II” value (from here on “Inhibitory Concentration”) in [5] was 100 µM. The “ED50 Cytotoxicity, Human Lung Bronchogenic” value in [6] was 2.78 µg/mL (≈ 19.9 µM). Further, in assay [7], the “ED50 Cytotoxicity, P388 Lymphocytic Leukemia” value is 9.66 µg/mL (≈ 69 µM). Also, in assay [8], the “Serum Cholesterol Day 9” value is reported as 75 ± 7% of Control, the “Serum Cholesterol Day 16” value is 66 ± 6% of Control and the “Serum Triglycerides Day 16” value is 63 ± 6% of Control. Also, the “ED50 Cytotoxicity, Human Colon SW480” value in assay [9] is 4.43 µg/mL (≈ 31.7 µM). Besides, in the assay on osteosarcoma TE418, the “ED50 Cytotoxicity, Human Osteo-Sarcoma” value came out at 7.17 µg/mL (≈ 51.2 µM). The “ED50 Cytotoxicity, Human Glioma” value in the assay on glioma EH 118 MG amounted to 3.04 µg/mL (≈ 21.7 µM). The “inhibition of growth, in vivo Ehrlich ascites carcinoma” value (from here on “inhibition of growth”) in [10] is reported as 73%.
With `O=C(O)[BH2-][NH+]1CCNCC1`, the “ED50 Cytotoxicity, Human HeLa-S^3” value in [1] turned out to be 1.60 µg/mL (≈ 11.1 µM). For the same compound, the “ED50 Cytotoxicity, Human KB” value in [2] came out at 7.23 µg/mL (≈ 50.2 µM). Moreover, the “ED50 Cytotoxicity, L1210 Lymphoid Leukemia” value in assay [3] is 3.34 µg/mL (≈ 23.2 µM). The “ED50 Cytotoxicity, Human lymphocyte Tmolt3” value in assay [4] was 3.10 µg/mL (≈ 21.5 µM). In addition, in [5], the “Inhibitory Concentration” value amounted to 100 µM. The “ED50 Cytotoxicity, Human Lung Bronchogenic” value in [6] is 7.12 µg/mL (≈ 49.5 µM). Also, in assay [11], the “% of Control, anti-inflammatory (paw weight increase)” value (shortened to “% of Control … (paw weight increase)”) is 79 % of Control. Further, the “ED50 Cytotoxicity, P388 Lymphocytic Leukemia” value in [7] is 10.23 µg/mL (≈ 71.1 µM). Further, in [8], the “Serum Cholesterol Day 9” value is 77 ± 7% of Control, the “Serum Cholesterol Day 16” value is 74 ± 4% of Control and the “Serum Triglycerides Day 16” value is reported as 76 ± 5% of Control. Besides, the “ED50 Cytotoxicity, Human Colon SW480” value in [9] came out at 6.19 µg/mL (≈ 43 µM). Also, the “ED50 Cytotoxicity, Human Osteo-Sarcoma” value with osteosarcoma TE418 worked out at 4.41 µg/mL (≈ 30.6 µM). The “ED50 Cytotoxicity, Human Glioma” value in the assay with glioma EH 118 MG came out at 2.14 µg/mL (≈ 14.9 µM).
With `Cc1[nH]cc[n+]1[BH2-]C#N`, in assay [1], the “ED50 Cytotoxicity, Human HeLa-S^3” value came to 1.44 µg/mL (≈ 11.9 µM). The “ED50 Cytotoxicity, Human KB” value in assay [2] turned out to be 2.18 µg/mL (≈ 18 µM). Also, in assay [2] (text summary of Table 4), the “activity in the KB nasopharynx screen (in words)” value is recorded as “good activity”. In assay [3], the “ED50 Cytotoxicity, L1210 Lymphoid Leukemia” value turned out to be 3.56 µg/mL (≈ 29.4 µM). In addition, in assay [4], the “ED50 Cytotoxicity, Human lymphocyte Tmolt3” value came to 0.65 µg/mL (≈ 5.37 µM). In addition, in [6], the “ED50 Cytotoxicity, Human Lung Bronchogenic” value was 3.09 µg/mL (≈ 25.5 µM). The “% of Control … (paw weight increase)” value in [11] was 62 % of Control. Further, the “ED50 Cytotoxicity, P388 Lymphocytic Leukemia” value in [7] turned out to be 4.47 µg/mL (≈ 37 µM). In addition, in [8], the “Serum Cholesterol Day 9” value is on record as 89 ± 8% of Control, the “Serum Cholesterol Day 16” value is on record as 76 ± 6% of Control and the “Serum Triglycerides Day 16” value is recorded as 68 ± 5% of Control. The “ED50 Cytotoxicity, Human Colon SW480” value in [9] was 4.66 µg/mL (≈ 38.5 µM). In addition, the “ED50 Cytotoxicity, Human Osteo-Sarcoma” value in the assay with osteosarcoma TE418 is 6.48 µg/mL (≈ 53.6 µM). The “ED50 Cytotoxicity, Human Glioma” value in the assay on glioma EH 118 MG turned out to be 2.06 µg/mL (≈ 17 µM). Further, the “T/C%, in vivo Lewis lung carcinoma” value in the assay on Lewis lung carcinoma came out at 163%. The “inhibition of growth” value in assay [10] worked out at 78%.
For `O=C(O)[BH2-][NH+]1CCOCC1`, the “ED50 Cytotoxicity, Human HeLa-S^3” value in assay [1] came out at 2.14 µg/mL (≈ 14.8 µM). In addition, the “ED50 Cytotoxicity, Human KB” value in assay [2] was determined as 7.12 µg/mL (≈ 49.1 µM). For the same compound, the “ED50 Cytotoxicity, L1210 Lymphoid Leukemia” value in assay [3] was found to be 4.44 µg/mL (≈ 30.6 µM). In addition, the “ED50 Cytotoxicity, Human lymphocyte Tmolt3” value in [4] is 1.96 µg/mL (≈ 13.5 µM). Besides, the “Inhibitory Concentration” value in assay [5] amounted to 100 µM. Further, the “ED50 Cytotoxicity, Human Lung Bronchogenic” value in [6] amounted to 6.30 µg/mL (≈ 43.5 µM). The “% of Control … (paw weight increase)” value in assay [11] is 66 % of Control. Further, in assay [7], the “ED50 Cytotoxicity, P388 Lymphocytic Leukemia” value is 12.30 µg/mL (≈ 84.8 µM). In [8], the “Serum Cholesterol Day 9” value was 63 ± 6% of Control, the “Serum Cholesterol Day 16” value is on record as 57 ± 5% of Control and the “Serum Triglycerides Day 16” value is given as 84 ± 7% of Control. Further, the “serum cholesterol level lowered” value in assay [8] (doses of Table 6) stood at 43%. Besides, the “ED50 Cytotoxicity, Human Colon SW480” value in [9] came to 7.02 µg/mL (≈ 48.4 µM). Moreover, the “ED50 Cytotoxicity, Human Osteo-Sarcoma” value in the assay on osteosarcoma TE418 is 6.65 µg/mL (≈ 45.9 µM). Further, the “ED50 Cytotoxicity, Human Glioma” value in the assay on glioma EH 118 MG was 2.44 µg/mL (≈ 16.8 µM).
In the case of `CC1CC[NH+]([BH2-]C(=O)O)CC1` (stereo not drawn), the “ED50 Cytotoxicity, Human HeLa-S^3” value in assay [1] stood at 1.71 µg/mL (≈ 10.9 µM). In addition, the “ED50 Cytotoxicity, Human KB” value in assay [2] was found to be 6.19 µg/mL (≈ 39.4 µM). Moreover, the “ED50 Cytotoxicity, L1210 Lymphoid Leukemia” value in assay [3] was determined as 2.85 µg/mL (≈ 18.2 µM). Further, the “ED50 Cytotoxicity, Human lymphocyte Tmolt3” value in assay [4] turned out to be 2.61 µg/mL (≈ 16.6 µM). For the same compound, in [5], the “Inhibitory Concentration” value was found to be 100 µM. In addition, the “ED50 Cytotoxicity, Human Lung Bronchogenic” value in assay [6] was 3.51 µg/mL (≈ 22.4 µM). For the same compound, the “activity against growth of lung bronchogenic tumor (in words)” value in assay [6] (text summary of Table 4) is listed as “significant activity”. Besides, in [11], the “% of Control … (paw weight increase)” value is recorded as 80 % of Control. In assay [7], the “ED50 Cytotoxicity, P388 Lymphocytic Leukemia” value stood at 3.89 µg/mL (≈ 24.8 µM). Also, the “activity in the murine P388 lymphocytic screen (in words)” value in [7] (text summary of Table 4) is listed as “active”. For the same compound, in [8], the “Serum Cholesterol Day 9” value is 106 ± 7% of Control, the “Serum Cholesterol Day 16” value is reported as 85 ± 6% of Control and the “Serum Triglycerides Day 16” value is given as 53 ± 4% of Control. The “serum triglyceride levels lowered” value in [8] (doses of Table 6) is given as 47%. In addition, in [9], the “ED50 Cytotoxicity, Human Colon SW480” value worked out at 6.50 µg/mL (≈ 41.4 µM). In addition, the “ED50 Cytotoxicity, Human Osteo-Sarcoma” value with osteosarcoma TE418 stood at 7.47 µg/mL (≈ 47.6 µM). For the same compound, in the assay with glioma EH 118 MG, the “ED50 Cytotoxicity, Human Glioma” value turned out to be 2.53 µg/mL (≈ 16.1 µM). For the same compound, the “T/C%, in vivo Lewis lung carcinoma” value in the assay with Lewis lung carcinoma was 179%. The “inhibition of growth” value in assay [10] came to 78%.

The record behind these values is patent US5280119A, “Heterocyclic amine-boranes, and method of inhibiting DNA topoisomerase activity and/or combatting inflammation, hyperlipidemia, and/or neoplasia using amine-borane compounds” (dated 1994).
